The assay concerns the target isolated polymerase domain (I1780-V2590) of DNA polymerase theta (Polθ) (Homo sapiens (Human), UniProt O75417).

Sequences of proteins named here, by UniProt entry; tags and fusion partners are left off. Residues count along the entry.
UniProt O75417, 1780-2590: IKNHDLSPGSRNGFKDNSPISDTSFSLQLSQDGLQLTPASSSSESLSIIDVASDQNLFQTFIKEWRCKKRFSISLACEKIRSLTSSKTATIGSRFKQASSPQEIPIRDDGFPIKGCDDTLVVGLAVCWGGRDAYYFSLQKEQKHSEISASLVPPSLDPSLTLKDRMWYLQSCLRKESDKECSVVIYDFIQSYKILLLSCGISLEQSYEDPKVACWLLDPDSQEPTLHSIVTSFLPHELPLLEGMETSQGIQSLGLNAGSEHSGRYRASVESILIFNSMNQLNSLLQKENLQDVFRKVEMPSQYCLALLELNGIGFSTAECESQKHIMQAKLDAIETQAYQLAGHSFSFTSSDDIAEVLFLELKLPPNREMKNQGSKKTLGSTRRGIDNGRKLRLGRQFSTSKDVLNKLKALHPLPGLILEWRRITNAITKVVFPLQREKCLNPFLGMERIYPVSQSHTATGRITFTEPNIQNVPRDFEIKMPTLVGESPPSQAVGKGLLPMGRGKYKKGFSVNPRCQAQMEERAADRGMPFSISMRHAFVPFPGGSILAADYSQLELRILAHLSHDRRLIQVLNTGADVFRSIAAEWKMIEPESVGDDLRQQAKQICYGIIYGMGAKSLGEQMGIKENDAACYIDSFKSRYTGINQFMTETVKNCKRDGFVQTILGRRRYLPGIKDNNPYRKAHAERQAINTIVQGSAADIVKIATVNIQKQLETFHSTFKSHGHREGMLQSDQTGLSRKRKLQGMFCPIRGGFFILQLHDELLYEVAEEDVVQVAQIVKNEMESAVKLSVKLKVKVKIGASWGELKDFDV

The term IC50 denotes the midpoint of a concentration-inhibition curve. Lower therefore signals higher potency.

Regarding `CC1(Oc2ncnc3c2nc(-c2cccc(O[C@H]4C[C@@H](C(=O)O)C4)c2Cl)n3Cc2cc(Cl)ccc2C#N)CC1` [Example U84, (1s,3s)-3-(2-chloro-3-(9-(5-chloro-2-cyanobenzyl)-6-(1-methylcyclopropoxy)-9H-purin-8-yl)phenoxy)cyclobutane-1-carboxylic acid], half-maximal inhibition (IC50) was put at 3.98 nM.

On to `CC1(Oc2ncnc3c2nc(-c2cccc(O[C@H]4CC[C@H](C(=O)O)CC4)c2Cl)n3Cc2cc(Cl)ccc2C#N)CC1` [Example U85, (1r,4r)-4-(2-chloro-3-(9-(5-chloro-2-cyanobenzyl)-6-(1-methylcyclopropoxy)-9H-purin-8-yl)phenoxy)cyclohexane-1-carboxylic acid], for which half-maximal inhibition (IC50) was put at 3.98 nM. The compound `COc1ccc(C)cc1Cn1c(-c2cccc(O[C@H]3CC[C@H](C(=O)O)CC3)c2Cl)nc2c(OC3(C)CC3)ncnc21` [Example U91, (1r,4r)-4-(2-chloro-3-(9-(2-methoxy-5-methylbenzyl)-6-(1-methylcyclopropoxy)-9H-purin-8-yl)phenoxy)cyclohexane-1-carboxylic acid] showed an IC50 of 3.98 nM.

Source of the values: patent US20250195530A1, “POLQ INHIBITORS” (ASTRAZENECA AB, priority 2022, published 2025).
